Experimental data taken from patent publication US20240358684A1, “METHOD FOR ENHANCING INNATE IMMUNE RESPONSE” (Kyoto University, priority 2021, published 2024).

Protein sequences, listed by entry. Tags and fused reporters are not part of them. Lines headed by an entry give the natural chain unless they say otherwise; changes in a name come on top.
UniProt P49761: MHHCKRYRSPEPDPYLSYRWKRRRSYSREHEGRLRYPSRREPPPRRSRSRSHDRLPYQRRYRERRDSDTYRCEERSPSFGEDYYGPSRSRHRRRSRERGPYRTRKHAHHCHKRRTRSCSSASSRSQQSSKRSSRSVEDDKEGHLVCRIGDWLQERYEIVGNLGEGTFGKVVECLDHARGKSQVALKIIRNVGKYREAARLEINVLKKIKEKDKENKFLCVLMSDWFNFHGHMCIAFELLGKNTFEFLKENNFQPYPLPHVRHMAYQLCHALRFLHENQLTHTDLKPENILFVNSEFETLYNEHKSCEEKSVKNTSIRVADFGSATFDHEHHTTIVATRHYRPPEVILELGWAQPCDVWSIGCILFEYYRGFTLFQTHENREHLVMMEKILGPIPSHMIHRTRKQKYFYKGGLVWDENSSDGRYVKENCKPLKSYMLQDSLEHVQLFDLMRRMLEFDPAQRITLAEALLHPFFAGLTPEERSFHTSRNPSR

Target: T1, CLK3 (Homo sapiens, UniProt P49761)
T1 construct: Enzyme activity was measured with off-chip mobility shift assay using purified CLK protein
Test: Inhibition confirmation test for CLK (off-chip mobility shift assay)
Format: biochemical
Settings: ATP 75 μM; read-out: CLK3 inhibitory activity (IC50 value)
Method: Enzyme activity was measured with off-chip mobility shift assay using purified CLK protein. DYRKtide-F peptide (1 μM) was used as a substrate, and a composition of a reaction solution used was as follows (20 mM HEPES (pH7.5), 0.01% Triton X-100, 1 mM DT7, 1% DMSO, and ATP (10 μM for CLK1, 150 μM for CLK2, and 75 μM for CLK3)). The enzyme reaction was performed at room temperature for 1 hour, and the reaction was terminated by adding QuickScout Screening Assist MSA (Carna Biosciences, Inc.). A substrate peptide and a phosphorylated peptide in the enzyme reaction solution were separated and quantified using the LabChip system (Perkin-Elmer, Waltham, MA, USA), and inhibition of CLK was evaluated by calculating a product ratio using the following formula, the substrate peptide peak height (S), and the phosphorylated peptide peak height (P).
(P/(P+S)) • P: product-derived peak • S: substrate-derived peak

Question: `CCN1/C(=C/C(C)=O)Sc2ccc(OC)cc21` [compound 4, 1-(3-ethyl-5-methoxy-1,3-benzothiazol-2-ylidene)propan-2-one, reference compound] was tested. Which IC50 did it give?
Answer: The IC50 was > 3 µM.
